In data set [1] the test system is normal human dermal fibroblasts (NHDF). Kind of data set: Cytotoxicity MTS assay on normal fibroblasts. The data set is classed as cell-based. Conditions: 0.2 mM, 48 h. The procedure:
(§1) Cell culture: NHDF, HeLa, HOS, HepG2, MCF7, MeWo and CT-26 cells were cultivated in complete Eagle’s Minimal Essential Medium alpha (aMEM) containing a 1% Penicillin–Streptomycin–Amphotericin B mixture and a 10% fetal bovine serum under 5% CO2 humidified atmosphere at 37 °C. LN-229 cells were cultivated in DMEM with a 1% Penicillin–Streptomycin–Amphotericin B mixture and a 5% fetal bovine serum. U-118 cells were cultivated in DMEM with a 1% Penicillin–Streptomycin–Amphotericin B mixture and a 10% fetal bovine serum. StemPro™ Accutase™ Cell Dissociation Reagent was used for passaging MeWo and U-118 cells, and TrypLE Express was used for all other cell lines. […]
(§2) Cytotoxicity MTS assay: In order to perform the MTS assay, cells were placed in culture-treated 96-well plates at densities of 5 × 10^3 cells/well (NHDF and CT-26), 7 × 10^3 cells/well (MCF7) and 10 × 10^3 cells/well (HOS, HeLa, HepG2, MeWo, LN-229, U-118) in 100 μL of a MEM medium/well and allowed to adhere for 24 h. […] Before the final reading, 20 μL CellTiter 96® Aqueous One Solution/well was added, and the plates were incubated for 1–4 h. Finally, the absorbance was recorded with a microplate reader at λ = 490 nm. […] Graphical data were expressed as means ± standard error of the mean (S.E.M.). […]
On the technique in general: Tetrazolium dyes change colour on reduction, which living cells bring about.

For data set [2], the system named is liver cancer (HepG2) cells. Kind of data set: Cytotoxicity MTS assay on HepG2. Conditions: HepG2, 0.2 mM, 48 h. The data set is classed as cell-based, human. The method, then: as §1, §2

A word on the cell viability: it is a per cent measure of how many cells are alive, often set against a control. Low readings indicate more harm to the cells, high ones less harm to the cells. With “10-(poly(ethylene glycol))-10H-phenothiazine-3-carbaldehyde [PPF]”, the cell viability in data set [1] is 78%; in data set [2], 15%.

These data come from paper PMC10049495, “Antitumor Activity of PEGylated and TEGylated Phenothiazine Derivatives: Structure–Activity Relationship” (International Journal of Molecular Sciences, 2023).
